This assay has as its target (recombinant) catalytic domain of human Bub1 (amino acids 704-1085) (Homo sapiens (Human), UniProt O43683). Put plainly: Bub1 kinase assay (TR-FRET). To be noted: read-out: Biological Assay: Bub1 kinase assay median IC50, ATP 10 μM final, peptide substrate 1 μM final, 60 min at 22° C. (TR-FRET usually uses a lanthanide donor and a delayed reading to cut background.)

Protein sequences, listed by entry. Tags and fused reporters are not part of them. Residues count along the entry.
UniProt O43683, 704-1085 limits assumed: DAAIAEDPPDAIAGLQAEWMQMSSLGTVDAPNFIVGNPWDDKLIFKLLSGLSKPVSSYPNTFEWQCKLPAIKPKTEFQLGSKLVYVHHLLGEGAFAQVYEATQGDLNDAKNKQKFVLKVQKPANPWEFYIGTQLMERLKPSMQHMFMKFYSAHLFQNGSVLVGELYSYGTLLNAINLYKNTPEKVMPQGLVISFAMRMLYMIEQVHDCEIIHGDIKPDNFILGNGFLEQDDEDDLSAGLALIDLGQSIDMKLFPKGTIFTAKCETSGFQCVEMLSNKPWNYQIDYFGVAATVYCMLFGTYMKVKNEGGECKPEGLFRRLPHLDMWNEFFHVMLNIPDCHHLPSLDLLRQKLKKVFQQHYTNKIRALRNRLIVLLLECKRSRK

As usually defined, the IC50 is the concentration that inhibits the measured activity by half. In the case of `CC1(C)CC(=O)c2c([nH]c(-c3ccnc(NC(=O)C4CC4F)c3)c2Nc2ccccc2)C1` (single isomer, unassigned) [Example 255], the half-inhibitory concentration (IC50) amounted to 5.35 nM.
